Test results published in ChEMBL document CHEMBL4613273, “Discovery of Aryl Formyl Piperidine Derivatives as Potent, Reversible, and Selective Monoacylglycerol Lipase Inhibitors” (J Med Chem, 2020).

Amino acid sequences for entries named in this document (tags omitted).
UniProt Q99685, whole entry: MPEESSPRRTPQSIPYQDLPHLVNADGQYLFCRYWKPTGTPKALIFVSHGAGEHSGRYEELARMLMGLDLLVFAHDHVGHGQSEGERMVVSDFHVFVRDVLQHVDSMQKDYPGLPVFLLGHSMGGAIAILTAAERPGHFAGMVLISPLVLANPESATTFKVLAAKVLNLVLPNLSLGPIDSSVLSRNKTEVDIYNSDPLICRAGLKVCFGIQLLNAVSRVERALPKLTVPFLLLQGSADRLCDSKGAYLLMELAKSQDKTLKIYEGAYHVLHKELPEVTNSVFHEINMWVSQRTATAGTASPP

Molecular target: Monoglyceride lipase (Homo sapiens, UniProt Q99685)
Experiment: Inhibition of human recombinant MAGL pre-incubated for 5 mins before MAGL substrate addition and further incubated for 10 mins

Structure (SMILES): O=C(Oc1ccc([N+](=O)[O-])cc1)N1CCN(Cc2cccc(Oc3ccccc3)c2)CC1
- IC50: 0.205 µM
